# Antibody variant affinities, Ab-14 light chain, assay 1

The measurements come from Engelhart et al. 2022 (doi:10.1038/s41597-022-01779-4) through the FLAb antibody collection.

Antigen: PDVDLGDISGINAS, a 14-residue peptide of the SARS-CoV-2 spike HR2 region.

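The parent was found by panning a naive human phage display library on the peptide. Library AAYL50 holds single substitutions and randomly drawn double and triple substitutions in the CDRs. The assay is AlphaSeq: two haploid yeast populations carry antibody and antigen on their surface. Mating (16 h, 30 °C) was followed by selection of diploids and sequencing of their barcodes. The ratio of observed to expected reads was calibrated, replicate by replicate, on BCL2-family standards whose Kd was known from biolayer interferometry. Each pool was mated in three replicate cultures.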

Ab-14 is the parent antibody, in scFv form: VH, then a (GGGGS)3 linker, then VL. The heavy chain is unchanged in all variants.
VH: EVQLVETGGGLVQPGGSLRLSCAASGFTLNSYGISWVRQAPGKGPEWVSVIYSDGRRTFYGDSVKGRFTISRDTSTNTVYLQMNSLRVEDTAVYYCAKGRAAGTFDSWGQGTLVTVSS
VL: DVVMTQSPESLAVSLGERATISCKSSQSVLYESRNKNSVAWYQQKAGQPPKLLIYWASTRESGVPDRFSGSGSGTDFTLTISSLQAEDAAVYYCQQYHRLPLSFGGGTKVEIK

Each variant is given by its three light chain CDRs, as the data file delimits them; those of the parent are KSSQSVLYESRNKNSVA, WASTRES, QQYHRLPLS. Affinities are written as log10 Kd with Kd in nM; a lower number is a better binder. Replicates are averaged; those with no signal do not enter the mean. A pair that was not seen in that replicate is written "n.d."; this usually means weak binding, but a binder can also be missed. As a blank, each scFv also met three strains without target: over library AAYL50, 18% of these pairings were detected, typically at 4.19 and seldom below 2.99.

"replicates, log10 nM",mean log10 Kd (nM),CDR-L1,CDR-L2,CDR-L3
n.d. / n.d. / n.d.,n.d.,KSSQSVLYSSRNKNSVA,WAVTRES,QQYHRLPNS
n.d. / n.d. / 5.29,5.29,KSSQSVLYESRNKNSVA,WAWTRES,QCMHRLPLS
1.09 / 1.40 / 1.27,1.25,KSSQSVLYESRNRNSVA,WADTRES,QDYHRLPLS
4.83 / 3.04 / 5.04,4.30,KSHQSVNYESRCKNSVA,WASTRES,QQYHRLPLS
4.59 / n.d. / n.d.,4.59,KSSQSVLYESDNKNSVA,WAQTRES,NQYHRLPLS
n.d. / 5.63 / 4.81,5.22,KSSQSVLYESRNKNGVE,WASTRQS,QQYHRLPLS
5.05 / 5.38 / n.d.,5.21,KSSQSVLYESRRKNSVA,WHSTRKS,QQYHRLPLS
n.d. / n.d. / n.d.,n.d.,KSSQSVLYESRNKNSLA,WQSTRES,QFYHRLPLS
0.73 / 0.97 / 0.99,0.90,KNSQSVLYESTNMNSVA,WASTRES,QQYHRLPLS
n.d. / n.d. / n.d.,n.d.,KSSQSILYESRNKNSVA,WASTREM,QQYHRGPLS
3.60 / 2.36 / 4.22,3.39,KSSQYVLYESRNKNSVA,CCSTRES,QQYHRLPLS
3.04 / 3.31 / 3.53,3.29,KSSQSVAYESRNKLSVA,WASTMES,QQYHRLPLS
n.d. / n.d. / n.d.,n.d.,KSSQSVLYESRNKLSVA,WASTRES,EQYHRLPHS
2.18 / 1.69 / 1.75,1.87,KSTQSVLYESRSKNSVA,WASTRES,QQYHRLPFS
n.d. / 2.57 / n.d.,2.57,KSSQSVLYESRNKNSVA,WASTREN,GQYHRLPLS
3.57 / n.d. / n.d.,3.57,KSSQSVLYESPNKNSVA,PSSTRES,QQYHRLPLS
n.d. / n.d. / n.d.,n.d.,KSSQSVLYEDRNKNSWA,WASTRES,PQYHRLPLS
0.33 / 0.71 / 0.45,0.50,KSSQSVGYESRQKNSVA,WASTRES,QQYHRLPLS
4.75 / 4.61 / 5.85,5.07,KSSQSVLYGSPNKNSVA,WASTRES,QQIHRLPLS
n.d. / n.d. / n.d.,n.d.,KSSQSVLYESRNKNSVA,WPSGRES,QIYHRLPLS
n.d. / n.d. / n.d.,n.d.,KSSQSVLYESRNKASVA,WASARES,QQYHRLPPS
n.d. / 4.82 / n.d.,4.82,KSSQSVLYESRNKNSVA,WASARES,DQYHRLPKS
3.50 / n.d. / 4.81,4.15,ISSQSVLYESRNKASVA,WQSTRES,QQYHRLPLS
n.d. / n.d. / n.d.,n.d.,KSSQSVLYESRNKNSVA,WASTREV,QQYHRVVLS
n.d. / 3.29 / n.d.,3.29,KSSQSVLYESRNKSYVA,YASTRES,QQYHRLPLS
4.19 / 4.28 / n.d.,4.23,YSSQSVLYESRNKNSVA,WQSTRES,QQYHRLPLC
n.d. / 3.37 / n.d.,3.37,KSSQQVLYESRNKNSVA,WASTRES,QIYHYLPLS
1.50 / 1.58 / 1.55,1.54,KSSVDVLYMSRNKNSVA,WASTRES,QQYHRLPLS
n.d. / 3.98 / n.d.,3.98,KFSRSVLYESRNKNVVA,WASTRES,QQYHRLPLS
3.54 / n.d. / 5.73,4.64,KSSQSVLYESRNINSYA,WASTRES,QQYHRLPLD
4.38 / 4.85 / n.d.,4.61,RSSQSVLYESRNKNSVA,WASTAES,QCYHRLPLS
2.05 / 1.47 / 1.82,1.78,KSSQSVLYESRNKNSVA,WAIIRES,SQYHRLPLS
n.d. / n.d. / n.d.,n.d.,YSSQSVLYESRNHNSVA,WASTSES,QQYHRLPLS
n.d. / n.d. / n.d.,n.d.,KSSQSVLYESRNKNHVA,WAQTRES,QQYHRLALS
5.24 / 2.81 / 4.74,4.27,KSSQSVLYTSWNKNSVA,FASTRES,QQYHRLPLS
1.10 / 1.18 / 1.48,1.25,KREQSVLYESRNKNSVA,WASTRES,QQYHRLPRS
2.26 / 1.80 / 1.77,1.94,KSSQSVLYESRTKNSVA,WASTREW,QQYHRLPDS
n.d. / 4.33 / n.d.,4.33,KSSQDVLYESRNKNSVA,WASTRES,QQYHPDPLS
2.62 / 2.24 / 1.87,2.24,KSSQDVLYESRNKNSVA,WASENES,QQYHRLPLS
n.d. / n.d. / n.d.,n.d.,KSSQSVLYESRKKNSEA,WASTRCS,QQYHRLPLS
5.24 / 3.12 / 4.13,4.16,KSSQSVLLESRNKNSCA,WASTRES,QQSHRLPLS
0.47 / 0.74 / 0.59,0.60,KSSQSVFYESRNKNQVA,AASTRES,QQYHRLPLS
n.d. / n.d. / 3.82,3.82,KSSQSVLMESRNKNSVA,WASTRED,QQYHRLPLP
0.67 / 1.03 / 0.90,0.87,KSSQSVLYEWANKESVA,WASTRES,QQYHRLPLS
1.08 / 1.18 / 1.54,1.26,KSSQSVLMESRNKNSVA,WASTRES,QQYQHLPLS
5.39 / n.d. / n.d.,5.39,KSSQSVLYESRNGNSVA,WASTRIS,QQYHRLPHS
2.94 / 3.28 / 4.03,3.42,KSSQSVLYESRWFNSVA,WASTRES,QQFHRLPLS

The 4 strongest on average among those seen in every replicate, once more:

| CDR-L1 | CDR-L2 | CDR-L3 | replicates, log10 nM | mean log10 Kd (nM) |
|---|---|---|---|---|
| KSSQSVGYESRQKNSVA | WASTRES | QQYHRLPLS | 0.33 / 0.71 / 0.45 | 0.50 |
| KSSQSVFYESRNKNQVA | AASTRES | QQYHRLPLS | 0.47 / 0.74 / 0.59 | 0.60 |
| KSSQSVLYEWANKESVA | WASTRES | QQYHRLPLS | 0.67 / 1.03 / 0.90 | 0.87 |
| KNSQSVLYESTNMNSVA | WASTRES | QQYHRLPLS | 0.73 / 0.97 / 0.99 | 0.90 |

For reference, the parent read 0.65 as the reference entry and 1.68 as a member of this library.